Screens deposited in PubChem by National Center for Advancing Translational Sciences (NCATS).
ClpP mod = qHTS Assay for Activators of ClpP; ATP-dependent Clp protease proteolytic subunit (Bacillus subtilis (strain 168)), P80244; purified B. subtilis ClpP, FRET peptide cleavage, 20 min; Potency, µM (titrated, usually from 57.5 µM), inactives show top-dose activity change, negative = active; hit rate 1.9% among 340,000; AID 651965, 2013; active = well fitted falling curve with a large enough effect; inconclusive = small, poorly fitted or top-dose-only effect; inactive = no such curve, though single readings can be large or run the other way; note: potency is the fitted concentration of half-maximal effect; the source files actives as falling curves though it sought activators and does not explain the sign; nearly all actives have a fitted effect of over 65% in size
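FRET quenching reversal measured ClpP activation: 10 microg/mL B. subtilis ClpP at pH 8 with the FRET-FV decapeptide, read at 430 nm after 320 nm excitation. The 20-min minus 0-min signal was scaled between DMSO/no-enzyme wells and ADEP (5.8 microM final).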
Nrf2 block = Nrf2 pathway inhibition; A549 ARE-Fluc reporter, luciferase luminescence, 18-24 h; Potency, µM (top dose mostly 46 µM), for the others: at the highest dose activity change, negative = inhibition, most hits filed as inhibitors; hit rate 2.1% among 360,000; note: potency is the fitted concentration of half-maximal effect; % is set by controls: 0 for no effect and ±100 for the full control effect; nearly all actives have a fitted effect of over 60% in size
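A549 ARE_Fluc cells (5000/well, 5% FBS OPTI-MEM) pre-incubated 2 h, then treated with compounds 18-24 h at 37C/5% CO2 in concentration-response. CellTiter-Fluor viability read first; BugLite luciferase luminescence after 15 min at room temperature gives Nrf2 activity.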
miR-21 FLuc = miR-21 reporter, rising signal. HeLa miR-21 FLuc reporter, luciferase, 48 h. Potency, µM (titrated, usually from 38.3 µM), without a hit: at the top dose reporter change, positive = more light. 340,000 tested, under 10 active. AID 2288; active = well fitted rising curve with a large enough effect; inconclusive = small, poorly fitted or top-dose-only effect; inactive = no such curve, though single readings can be large or run the other way;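 also: % of control where 0% means no effect; miR-21 action dims this reporter so a rising signal means less miR-21 action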
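HeLa cells stably expressing CMV-driven firefly luciferase with a downstream miR-21 binding sequence, endogenously expressing miR-21, were treated with titrations (up to about 40uM final) for 48 hours at 37 degree Celsius. Luciferase luminescence was read after lysis.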
A549 tox = A549 cytotoxicity, counter-screen for Nrf2 inhibitors | A549 ARE-Fluc cells, CellTiter-Fluor viability, 18-24 h | Potency, µM (doses to about 46 µM), inactives show at the top dose activity change, negative = cytotoxicity, usual class: inhibitors | hit rate 0.16% among 390,000 | AID 504648; note: potency is the fitted concentration of half-maximal effect; % is set by controls: 0 for no effect and ±100 for the full control effect
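Cytotoxicity counterscreen: CellTiter-Fluor fluorescence was measured in A549 ARE_Fluc cells after 18-24 h of compound exposure in a concentration series. The subsequent BugLite luminescent read reports ARE-luciferase activity.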
TCR act = T cell receptor activation; primary human leukocytes, anti-CD3, IL-2 HTRF, 48 h; Potency, µM (doses to about 9.22 µM), for the others: at the top dose activation of IL-2 secretion, hits mostly activators; 330,000 tested, under 10 active; AID 504894; note: % of control where 0% means no effect
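HTRF read-out of IL-2 secretion: europium cryptate donor excited at 320nm, d2 acceptor emission at 665nm. Cells were primary human leukocytes incubated 48 hr with compounds and a-CD3 beads, supplying TCR signal only.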
Nrf2 activator = activates Nrf2 signaling | AREc32 ARE-luciferase reporter (MCF7-derived line), luminescence, 24 h | Potency, µM (series often up to 46.1 µM), inactives show top-dose activation, actives largely listed as activators | hit rate 0.31% among 410,000; note: potency is the fitted concentration of half-maximal effect; % of control where 0% means no effect; nearly all actives have a fitted effect of over 65% in size
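Luciferase luminescence (Steady-Glo, 30 min at room temperature) served as the read-out of ARE activation in AREc32 cells treated with compounds for 24 hr at 37 deg C.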
* hit, by the source's call; [ ] = remark or other dose. An excerpt weighted towards active compounds, which were near 3.7% of everything screened. Unless noted, calls come from the whole dose curve; as a rule, active = well fitted curve in the direction sought with a large enough effect; inconclusive = small, poorly fitted or top-dose-only effect, or another doubt; inactive = no such curve, though single readings can be large; an effect the other way counts as inactive or inconclusive.

Screening OC(CSc1nnnn1-c1ccccc1)Cn1c2ccccc2c2ccccc21 (stereo unspecified) returned ClpP mod inconclusive and Nrf2 activator 0%.
Screening O=C(Nc1nnc(CSCc2ccc(F)cc2)s1)c1cccc([N+](=O)[O-])c1 returned ClpP mod -2%, Nrf2 block 18µM*, miR-21 FLuc 0%, A549 tox inconclusive, TCR act -4%[46.1 µM] and Nrf2 activator 4%.
`CCC(C)(C)c1nnc(NC(=O)c2cccc([N+](=O)[O-])c2)s1` gave ClpP mod 1%, Nrf2 block inconclusive, miR-21 FLuc -1%, A549 tox 0%, TCR act 0%[46.1 µM] and Nrf2 activator 12%.
`O=C(Nc1ccc(Cl)cc1)Nc1nnc(CSCc2ccccc2)s1` gave ClpP mod 18µM*, Nrf2 block 11%, miR-21 FLuc -5%, A549 tox -1%, TCR act -1%[46.1 µM] and Nrf2 activator 4%.
O=C(Nc1nnc(CSCc2ccc(Cl)cc2)s1)c1cccc([N+](=O)[O-])c1 was read as ClpP mod 25µM*, Nrf2 block inconclusive, miR-21 FLuc 0%, A549 tox -16%, TCR act -2%[46.1 µM] and Nrf2 activator 0%.
`COC(=O)C1(C(=O)OC)c2ncccc2N(S(=O)(=O)c2ccc(C)cc2)C1CC(=O)c1ccccc1` (stereo unspecified) gave ClpP mod 1%.
Clc1ccc(Cn2c(/C=C/c3ccco3)nc3ccccc32)cc1 was read as ClpP mod 35µM*, Nrf2 block 21%, miR-21 FLuc -33%, A549 tox -3%, TCR act -5%[46.1 µM] and Nrf2 activator inconclusive.
Cc1ccc(Cn2c(/C=C/c3ccco3)nc3ccccc32)cc1 was read as ClpP mod 28µM*, Nrf2 block inconclusive, miR-21 FLuc -56%, A549 tox 9%, TCR act 8%[46.1 µM] and Nrf2 activator inconclusive.
Screening CCCn1c(/C=C/c2ccco2)nc2ccccc21 returned ClpP mod -27%, Nrf2 block inconclusive, miR-21 FLuc -10%, A549 tox -3%, TCR act 5%[46.1 µM] and Nrf2 activator inconclusive.
`COc1ccc(-c2cnc3c(NC=O)cc(-c4ccccc4OC)cn23)cc1OC` gave ClpP mod inconclusive and Nrf2 activator 0%.
CCOc1ccc2ccccc2c1C1NC(=S)N(C)C(C)=C1C(=O)OC (stereo unspecified) was read as ClpP mod 8.9µM*, Nrf2 block 1%, miR-21 FLuc 0%, A549 tox -4%, TCR act 10% and Nrf2 activator 0%.
CCOC(=O)C1=C(C)N(C)C(=S)NC1c1c(OCC)ccc2ccccc12 (stereo unspecified) was read as ClpP mod 1%, Nrf2 block 25%, miR-21 FLuc 7%, A549 tox 8%, TCR act 8% and Nrf2 activator 0%.

Taken from the entries so far for reference:
`COC(=O)C1(C(=O)OC)c2ncccc2N(S(=O)(=O)c2ccc(C)cc2)C1CC(=O)c1ccccc1` (stereo unspecified) gave ClpP mod 1%.
Clc1ccc(Cn2c(/C=C/c3ccco3)nc3ccccc32)cc1 was read as ClpP mod 35µM*, Nrf2 block 21%, miR-21 FLuc -33%, A549 tox -3%, TCR act -5%[46.1 µM] and Nrf2 activator inconclusive.
Cc1ccc(Cn2c(/C=C/c3ccco3)nc3ccccc32)cc1 was read as ClpP mod 28µM*, Nrf2 block inconclusive, miR-21 FLuc -56%, A549 tox 9%, TCR act 8%[46.1 µM] and Nrf2 activator inconclusive.
Screening CCCn1c(/C=C/c2ccco2)nc2ccccc21 returned ClpP mod -27%, Nrf2 block inconclusive, miR-21 FLuc -10%, A549 tox -3%, TCR act 5%[46.1 µM] and Nrf2 activator inconclusive.

The list continues:
NC(=O)Cn1cc(C(=O)c2cccs2)c2ccccc21 was read as ClpP mod 20µM*, Nrf2 block 2%, miR-21 FLuc -6%, A549 tox 4%, TCR act -1% and Nrf2 activator 0%.
For Cc1cc2c(s1)c(/C=N/O)c(C(=O)NCc1ccccc1F)n2C the results were Nrf2 block 3% and A549 tox 14%.
`CCCCN(CC)CCNC(=O)C1CCN(c2nnc(C)c3c(C)n(-c4ccc(C)cc4)nc23)CC1` gave ClpP mod -22%, Nrf2 block inconclusive, miR-21 FLuc -3%, A549 tox 23µM* and Nrf2 activator 4%.
`Cc1cccc(NC(=O)Cn2ccn(-c3ccc4c(c3)OCCO4)c(=O)c2=O)c1` gave ClpP mod 2%, Nrf2 block -2%, A549 tox -1%, TCR act 0% and Nrf2 activator -1%.
CCc1ccc(N(CC)C(=O)c2sc3nc4n(c(=O)c3c2C)CCCC4)cc1 was read as ClpP mod 1%, Nrf2 block -12%, miR-21 FLuc 2%, A549 tox -3% and Nrf2 activator 4%.
Screening CCN(Cc1ccccc1)C(=O)c1sc2nc3n(c(=O)c2c1C)CCCC3 returned ClpP mod -2%, Nrf2 block 23µM*, miR-21 FLuc 18%, A549 tox -13% and Nrf2 activator 0%.
For Cn1c2c(c3cnc4cc(Cl)ccc4c31)CNCC2 the results were ClpP mod -5%, Nrf2 block 5% and A549 tox -2%.
For CCCn1c(-c2cccs2)nc2nc3ccccc3nc21 the results were ClpP mod 7%, Nrf2 block 19%, miR-21 FLuc -2%, A549 tox -4%, TCR act 3% and Nrf2 activator 4.5µM*.
Screening c1csc(Cn2c(-c3cccs3)nc3ccccc32)c1 returned ClpP mod 32µM*, Nrf2 block inconclusive, miR-21 FLuc 2%, A549 tox -18%, TCR act -4% and Nrf2 activator 3%.
For Cc1cccn2c(=O)c3cc(C#N)c(=O)n(-c4nnc(SCc5ccc(F)cc5)s4)c3nc12 the results were ClpP mod 4%, Nrf2 block inconclusive, miR-21 FLuc -5%, A549 tox 6% and Nrf2 activator 2%.
CC(C(=O)N1CCCC1)N1CCN(S(=O)(=O)c2ccc(OC(F)(F)F)cc2)CC1 (stereo unspecified) was read as ClpP mod -4%, Nrf2 block 11%, A549 tox 4%, TCR act -7% and Nrf2 activator 0%.
CC1CC(C)CN(C(=O)C(C)N2CCN(S(=O)(=O)c3ccc(C(F)(F)F)cc3)CC2)C1 (stereo unspecified) was read as ClpP mod 2%, Nrf2 block 18µM*, A549 tox inconclusive, TCR act 0% and Nrf2 activator 1%.
For COc1ccc(N2CCN(C(=O)CSc3nnnn3-c3ccc4c(c3)OCCO4)CC2)cc1 the results were ClpP mod 6%, Nrf2 block 16µM*, miR-21 FLuc 18%, A549 tox -2%, TCR act 4% and Nrf2 activator 1%.
C=C1c2cc(OC)ccc2NC(=O)N1CC was read as ClpP mod 3.2µM*, Nrf2 block -11%, miR-21 FLuc -5%, A549 tox 0%, TCR act 1% and Nrf2 activator 2%.
`CC(C)(C)OC(=O)N1CCC[C@@H]1C(=O)N1CCC[C@@H]1C(=O)NCc1ccccc1Cl` gave ClpP mod 1% and Nrf2 activator -1%.
